The target of the experiment is Fibroblast growth factor 22 (Homo sapiens) (UniProt Q9HCT0). The experiment can be described thus: FGF22 ligand-induced thermal stabilization – biophysical, thermal shift, cherry-pick, FGF22 synaptogenesis inhibitor project, dose response (AID 687022). The following applies: recombinant FGF22 thermal shift, SYPRO orange melting.

Chains of the proteins cited; added tags and fusions are not shown. Lines headed by an entry give the natural chain unless they say otherwise; changes in a name come on top.
UniProt Q9HCT0: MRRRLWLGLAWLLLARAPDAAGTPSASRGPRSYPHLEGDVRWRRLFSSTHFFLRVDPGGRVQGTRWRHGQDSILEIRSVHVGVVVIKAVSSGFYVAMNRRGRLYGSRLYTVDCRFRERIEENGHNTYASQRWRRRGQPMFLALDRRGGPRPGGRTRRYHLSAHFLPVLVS

This passage reports AC50 results from PubChem BioAssay AID687022 (Broad Institute, 2013).

What is called AC50 is the concentration giving half of the maximal activity seen.

`Nc1ccc(CCCCOc2ccccc2)cc1`: the AC50 is 9.03 µM.
Consider `Cc1ccc(S(=O)(=O)N(CCCN)CCCc2c(C)nc(N)[nH]c2=O)cc1`, for which the half-maximal activity concentration (AC50) was 4.73 µM.
